For the assay, the target named is T1, 2-amino-4-hydroxy-6-hydroxymethyldihydropteridine pyrophosphokinase (Escherichia coli (strain K12)) (UniProt P26281).
T1 sequence (whole entry): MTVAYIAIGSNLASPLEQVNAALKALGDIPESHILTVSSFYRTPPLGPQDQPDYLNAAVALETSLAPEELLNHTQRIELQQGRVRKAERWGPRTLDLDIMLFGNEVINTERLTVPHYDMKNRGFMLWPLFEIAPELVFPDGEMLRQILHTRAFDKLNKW
Kind of assay: Inhibition of GST-tagged Escherichia coli HPPK expressed in Escherichia coli using 6-hydroxymethyl-7,8-dihydropterin hydrochloride as substrate at 250 uM after 20 mins by luminescence assay. Summed up:
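GST tag cleaved from E. coli HPPK; 5 ng enzyme used. Reaction contained 0.75 µM dihydropterin substrate, 0.75 µM ATP, 100 mM Tris-HCl pH 8.5, 10 mM MgCl2, 10 mM BME, 0.01% Tween 20, 0.01% BSA and 5% DMSO. Compound present at 250 µM. Ran 20 min at 23 °C. Unconsumed ATP read by Kinase-Glo luminescence and reported as % inhibition.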

`Cc1nc2c(=O)[nH]c(N)nc2[nH]1`: the inhibition was determined as 49%.
In the case of `Nc1nc(=O)[nH]c2nc[nH]c12`, the inhibition worked out at 48%.

For orientation: inhibition means the percentage by which the read-out fell short of the control. Low readings indicate little suppression, high ones strong suppression.

The values above are taken from ChEMBL document CHEMBL3232813, “The identification, analysis and structure-based development of novel inhibitors of 6-hydroxymethyl-7,8-dihydropterin pyrophosphokinase” (Bioorg Med Chem, 2014).
